In publication PMC6828767:

Biological target: glutathione S-transferase (GST)-CaBP1 (UniProt Q9NZU7)

IAHP charge in neocortical pyramidal neurons with intracellular co-application of αSNo and CaBP1 (GST-CaBP1, 16 nM); the αSNo-mediated enhancement was reversed: 3 pC
spike frequency during current steps in neocortical pyramidal neurons with intracellular co-application of αSNo and CaBP1 (GST-CaBP1, 16 nM); the αSNo-mediated reduction was reversed: 27.8 Hz
Substance: higher-order α-synuclein oligomers larger than 100 kDa (wild-type α-synuclein incubated with dopamine) (from UniProt P37840 1-140) (complex)
